The values that follow come from BindingDB's records for doi:10.1016/j.bmc.2012.01.022 (Florida A&M University, 2012).

By UniProt entry, the sequences of proteins in these tests, tags left out. Chains listed by the source or under a name are the forms on record and can include a tag or linker.
UniProt P14416, whole entry: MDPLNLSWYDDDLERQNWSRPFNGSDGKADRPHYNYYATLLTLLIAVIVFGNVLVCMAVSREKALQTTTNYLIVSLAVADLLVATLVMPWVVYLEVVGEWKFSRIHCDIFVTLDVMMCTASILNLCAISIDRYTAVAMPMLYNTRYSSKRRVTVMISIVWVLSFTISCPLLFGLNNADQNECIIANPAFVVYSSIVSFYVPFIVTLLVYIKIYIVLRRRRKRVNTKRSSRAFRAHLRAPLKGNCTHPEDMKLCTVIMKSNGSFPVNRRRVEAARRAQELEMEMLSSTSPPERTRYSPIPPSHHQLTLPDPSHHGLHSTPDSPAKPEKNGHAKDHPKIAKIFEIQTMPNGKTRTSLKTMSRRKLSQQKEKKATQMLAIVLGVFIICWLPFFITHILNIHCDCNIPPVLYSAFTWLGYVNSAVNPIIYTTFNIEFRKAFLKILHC
UniProt P35462, as listed by the source: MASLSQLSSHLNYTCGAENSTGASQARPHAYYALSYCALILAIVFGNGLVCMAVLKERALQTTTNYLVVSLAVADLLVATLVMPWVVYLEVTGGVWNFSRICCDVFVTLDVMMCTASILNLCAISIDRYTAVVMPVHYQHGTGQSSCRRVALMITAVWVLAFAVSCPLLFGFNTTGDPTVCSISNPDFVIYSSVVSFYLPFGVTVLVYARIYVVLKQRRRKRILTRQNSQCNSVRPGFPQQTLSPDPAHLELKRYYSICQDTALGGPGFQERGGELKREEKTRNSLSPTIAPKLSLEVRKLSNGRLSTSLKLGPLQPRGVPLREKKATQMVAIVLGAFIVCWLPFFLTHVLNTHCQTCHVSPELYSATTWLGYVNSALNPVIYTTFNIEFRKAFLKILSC

In experiment [1] the target is D(2) dopamine receptor (Homo sapiens, UniProt P14416). Description: Displacement of [3H]-N-methylspiperone from dopamine D2 receptor expressed in human MES-23.5 cells. In general terms: In a radioligand displacement assay an active substance lowers the binding of a labelled ligand.
For experiment [2], the target named is D(3) dopamine receptor (Homo sapiens, UniProt P35462). Description: Displacement of [3H]-N-methylspiperone from dopamine D3 receptor expressed in human MES-23.5.

pKi: −log10 of the molar value.

As to `OC1(c2ccc(Cl)cc2)C[C@H]2CC[C@@H](C1)N2CCCCc1nc2ccccc2s1` (stereo partly drawn), the results for the pKi in experiment [1] and in experiment [2] were 7.36 and 7.89, respectively.

Take `O=C(CCCCN1[C@@H]2CC[C@H]1CC(O)(c1ccc(Cl)cc1)C2)c1nc2ccccc2s1` (stereo partly drawn): the negative-log Ki (pKi) (as a rule, −log10 of the Ki, conventionally taken in molar units) in experiment [2] was 7.80.
